The values that follow come from patent US12398153B2, “Spiro compound serving as ERK inhibitor, and application thereof” (D3 BIO (WUXI) CO., LTD., priority 2019, dated 2025).

In the test the test system is HT29 tumor cells. The experiment in a line: In vitro cell proliferation inhibition assay (CellTiterGlo). To be noted: read-out: HT29 IC50. As to the method: Assay Example 2. In Vitro Cell Proliferation Inhibition Assay
The ability of compounds to inhibit the proliferation of HT29 tumor cells was measured.
The assay compound was dissolved in 100% DMSO to prepare 10 mM stock solution.
• 1) UV light of a biological safety cabin was turned on, and 30 minutes were counted down; • 2) In a 37° C. water bath, RPMI1640 medium and trypsin were preheated; • 3) After completion of the UV irradiation, the biological safety cabin was opened. […] The culture vessel was shaken horizontally so that the trypsin evenly covered the cells at the bottom, and placed in an incubator for 2 minutes; • 6) Cell digestion was stopped with complete medium, and the cell suspension was pipetted to homogeneity and counted; • 7) According to the result of cell counting, the density of cell suspension was adjusted to 1500 cells per well, and the cell suspension was seeded at 50 μl per well; • 8) The stock solution of compounds was serially diluted in DMSO solution, and compounds were added to cell plate using Tecan;
9) The compound-added cell plate and CellTiterGlo were equilibrated at room temperature, and 25 microliters of CellTiterGlo was then added to each well. […] The signal value was then detected. The data were analyzed using XL-Fit, and the IC50 of each compound was calculated.
For orientation: ATP-based viability assays read luminescence as a measure of living cells.

Each structure is given as a SMILES string.

What is called IC50 is the concentration needed to halve the response being measured.

Consider `Cn1nccc1Nc1nccc(-c2nc3c(s2)C2(CCOC2)N(Cc2cccc(Cl)c2)C3=O)n1` (single isomer, unassigned), for which the IC50 was 26 nM.
